# Measurements reported in ChEMBL document CHEMBL4619753, “Treating Cancer by Spindle Assembly Checkpoint Abrogation: Discovery of Two Clinical Candidates, BAY 1161909 and BAY 1217389, Targeting MPS1 Kinase” (J Med Chem, 2020).
# Active and inactive are the calls of the source. The calls are words filed in the database; no cut-off is given here.
# System: HeLa
# Assay: Antiproliferative activity against human HeLa cells at 0.5 nM after 132 mins by fluorescence live-cell imaging assay
# Type: functional, cell-based
compound,measurement,value
CC(=O)O[C@H]1C(=O)[C@@]2(C)[C@H]([C@H](OC(=O)c3ccccc3)[C@]3(O)C[C@H](OC(=O)[C@H](O)[C@@H](NC(=O)c4ccccc4)c4ccccc4)C(C)=C1C3(C)C)[C@]1(OC(C)=O)CO[C@@H]1C[C@@H]2O,Activity,inactive
